For two compounds, IC50 results are on record in patent US11472791B2 (dated 2022).

The chains behind the UniProt entries cited, without tags or fusion partners. Residues count along the entry.
UniProt O60674, 828-1132: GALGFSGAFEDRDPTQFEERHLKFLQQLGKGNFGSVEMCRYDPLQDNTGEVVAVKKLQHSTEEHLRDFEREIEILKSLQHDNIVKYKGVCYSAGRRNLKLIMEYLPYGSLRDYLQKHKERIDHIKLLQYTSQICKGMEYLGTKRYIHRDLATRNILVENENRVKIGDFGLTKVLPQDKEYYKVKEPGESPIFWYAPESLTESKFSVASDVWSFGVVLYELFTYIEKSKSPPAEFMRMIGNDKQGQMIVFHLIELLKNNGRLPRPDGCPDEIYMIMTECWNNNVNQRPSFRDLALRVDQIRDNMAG

Bounds are passed on as bounds.

For orientation: IC50 means the concentration that gives 50% inhibition. Lower therefore signals higher potency.

The target in one assay is CDK2/Cyclin E1 (Homo sapiens (Human), UniProt P24941). Nature of the assay: CDK2/Cyclin E1 HTRF enzyme activity assay. It counts as biochemical. (In TR-FRET formats the signal depends on donor and acceptor labels being close together.)
Another assay has as its target JAK2 (Homo sapiens (Human), UniProt O60674). Nature of the assay: JAK inhibitory activity assay (JAK2). The class given is biochemical.

For the compound `CNCc1ccc(-n2cc(-c3nc(NC4CCN(S(C)(=O)=O)CC4)ncc3C#N)cn2)c(Cl)c1` [Example 113, 4-(1-(2-Chloro-4-((methylamino)methyl)phenyl)-1H-pyrazol-4-yl)-2-((1-(methylsulfonyl)piperidin-4-yl)amino)pyrimidine-5-carbonitrile], the IC50 on CDK2/Cyclin E1 was less than 50 nM.

As to `[2H]C([2H])([2H])NCc1ccc(-n2cc(-c3nc(NC4CCN(S(C)(=O)=O)CC4)ncc3C#N)cn2)c(Cl)c1` [Example 138, 4-(1-(2-Chloro-4-(((methyl-d3)amino)methyl)phenyl)-1H-pyrazol-4-yl)-2-((1-(methylsulfonyl)piperidin-4-yl)amino)pyrimidine-5-carbonitrile], the figures for the IC50 at CDK2/Cyclin E1 and against JAK2 were less than 50 nM and no less than 10000 nM, respectively.
